From patent publication US4346102A, “3H-Dihydrofuranone-2 derivatives and pharmaceutical use thereof” (Delalande S.A., priority 1979, dated 1982)

Assays:
[1] = system: monoamine oxidase type "A"; assay: Test C: inhibiting activity of monoamine oxidase type "A" in rat brain homogenates after oral administration (serotonine as substrate); format: in vivo; settings: 5 mg/kg p.o.
[2] = system: monoamine oxidase type "B"; assay: Test C: inhibiting activity of monoamine oxidase type "B" in rat brain homogenates after oral administration (phenylethylamine as substrate); format: in vivo; settings: 5 mg/kg p.o.

Structure (SMILES): O=C(CCNNC(=O)c1ccncc1)NCc1ccccc1 [NIALAMIDE, reference compound]
- Activity IMAO "A" (in words, across Max, 8 hrs, 24 hrs) [1]: Inactive
- Activity IMAO "B" (in words, across Max, 8 hrs, 24 hrs) [2]: Inactive
